Assay results: US7728155B2, “Dihydrobenzofuranyl alkanamines and methods for using same as cns agents” (Wyeth LLC, priority 2003, dated 2010)
pEC50: −log10 of the molar value.

By UniProt entry, the sequences of proteins in these tests, tags left out. Residues count along the entry.
UniProt P28335, 33-458: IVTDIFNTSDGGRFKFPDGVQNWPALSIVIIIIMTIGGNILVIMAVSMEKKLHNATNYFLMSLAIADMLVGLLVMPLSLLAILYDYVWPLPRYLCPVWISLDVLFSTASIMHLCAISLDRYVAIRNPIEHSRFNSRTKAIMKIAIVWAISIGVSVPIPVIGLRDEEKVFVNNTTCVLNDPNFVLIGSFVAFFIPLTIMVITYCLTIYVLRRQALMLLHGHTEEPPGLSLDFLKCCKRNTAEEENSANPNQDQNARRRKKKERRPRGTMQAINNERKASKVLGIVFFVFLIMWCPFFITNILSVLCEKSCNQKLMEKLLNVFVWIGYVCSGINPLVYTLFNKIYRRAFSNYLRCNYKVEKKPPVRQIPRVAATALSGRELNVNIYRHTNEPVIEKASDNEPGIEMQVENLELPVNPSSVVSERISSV

Target: human 5-HT2C receptor (Homo sapiens, UniProt P28335)
Assay: 5-HT2C receptor-stimulated calcium mobilization (FLIPR) in CHO cells
Assay type: cell-based
Conditions: reference compounds, CHO cells expressing human 5-HT2C

## 1-(2,5-dimethoxy-4-iodophenyl)isopropylamine [DOI, reference compound]
  pEC50: 9.30
